Sampled rows, rich in hits. Any-hit rate of the full collection: about 2.8%.
esBAF inh – blocks esBAF chromatin remodeling in mouse ES cells; Bmi1-luciferase knock-in reporter, 24 h; 100% = twice the neutral-well signal; reporter increase, % at 12.5 µM; actives 2% (n = 350,000); in the data active = activation above about 40%; inconclusive = no clear call, values can overlap the other calls;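 note: 0% = median of the plate's neutral control wells and 100% = double that signal; a rise in the Bmi1 reporter signal indicates esBAF inhibition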
miR-122 sensor – inhibitors of miR-122 in Huh7 cells; Huh7 miR-122 Renilla luciferase sensor, 48 h; neutral wells = 0, positive control = 100; activation (reporter increase), % at 12.5 µM; actives 0.3% (n = 340,000);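 active = mean replicate activation score at least 90 and every replicate individually at or above 90; inconclusive = only one of the two criteria met; inactive = neither criterion met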;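 note: higher luciferase means less miR-122 activity so hits act as miR-122 inhibitors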
Wnt act – activators of Wnt/beta-catenin signaling. AID 743398. actives 1.2% (n = 300,000). Wnt/beta-catenin reporter cell assay, activator, plate reader. activation, % at 9.35 µM; in the data active = activation above about 30%, passing the limit was not always enough; inconclusive = no clear call, values can overlap the other calls;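 note: 0% = neutral control wells and 100% = positive control wells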
UUG fidelity – yeast start codon fidelity modulation; activity score, % at 18.7 µM; actives 0.13% (n = 350,000); S. cerevisiae UUG-firefly luciferase reporter, luminescence/redox ratio; AID 602363;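 active means replicate mean at a twofold rise or more, about +100% in these data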;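 further: firefly luciferase made from a UUG start codon reports start codon fidelity; reporter light over untreated wells divided by growth signal over untreated wells; some hits fall short of that in this replicate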
PglD DTNB – PglD (C. jejuni) enzyme inhibition; purified PglD enzyme, DTNB colorimetric CoA detection; inhibition, % at 12.5 µM; actives 0.098% (n = 360,000); AID 602405; in the data active = inhibition above about 16%, passing the limit was not always enough; inconclusive = no clear call, values can overlap the other calls
MITF TRPM1 HTS – increases MITF-driven TRPM1 promoter luciferase signal | SK-MEL-5 TRPM1-promoter luciferase, 24 h; % of positive control, neutral wells = 0 | activation, % at 12.5 µM | actives 0.75% (n = 300,000);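 active = mean activation of at least 80% with every replicate also reaching 80%; inconclusive = mean reaches 80% but some replicate falls short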;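 note: 0% = neutral control wells and 100% = parthenolide positive control wells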
Starred values were filed as active, the others as inactive; ? = inconclusive; . = no result; [ ] = dose if it differs, or a comment.

Key to letters: A = esBAF inh; B = miR-122 sensor; C = Wnt act; D = UUG fidelity; E = PglD DTNB; F = MITF TRPM1 HTS
1. O=C(NCc1ccccc1Cl)c1ccc(CSc2nc3ccncc3[nH]2)cc1
  A = 5	B = 15	C = 1	D = -14	E = -1	F = 7
2. O=C(CSc1cn(CC(=O)N2CCOCC2)c2ccccc12)N1CCOCC1
  A = 3	B = -6	C = 6	D = 3	E = 6	F = -8
3. O=C(Cn1cc(SCc2cccc(Cl)c2)c2ccccc21)N1CCOCC1
  A = 62*	B = 16	C = .	D = -5	E = -2	F = 17
4. Cc1cccc(CSc2cn(CC(=O)N3CCOCC3)c3ccccc23)c1
  A = 84*	B = 11	C = 17	D = -7	E = 2	F = 7
5. Cc1ccc(S(=O)(=O)N(C)C[C@H]2OCc3cnnn3CCCC(=O)N([C@@H](C)CO)C[C@@H]2C)cc1
  A = 1	B = -7[16.7 µM]	C = .	D = -7	E = -2	F = .
6. COc1ccccc1NC(=O)N[C@H]1CC[C@H](CCNS(=O)(=O)c2ccccc2)O[C@H]1CO
  A = -5	B = 1[16.7 µM]	C = .	D = .	E = 1	F = .
7. COc1ccc(S(=O)(=O)Nc2ccc3c(c2)CC(=O)N([C@@H](C)CO)C[C@H](C)[C@H](CN(C)Cc2ccncc2)O3)cc1
  A = -3	B = 5[16.7 µM]	C = .	D = 1	E = 7	F = .
8. CCOC(=O)c1cnc2c(c(C)nn2C)c1Oc1ccc(OC)cc1
  A = -12	B = 0	C = 49*	D = -2	E = 3	F = .
9. CCOC(=O)c1cnc2c(c(C)nn2C)c1Oc1cc(Cl)cc(Cl)c1
  A = -6	B = .	C = -1	D = .	E = .	F = -3
10. O=C(COC(=O)c1ccccc1-n1cnnn1)c1ccccc1
  A = 11	B = 0	C = -1	D = -2	E = -9	F = 7
11. O=C(COC(=O)c1ccccc1-n1cnnn1)c1ccc(F)c(F)c1
  A = 56*	B = -7	C = 5	D = -10	E = 3	F = -4
12. CS(=O)(=O)NN1C(=O)c2ccccc2NC1c1cc2ccccc2nc1Cl (centres undefined)
  A = 89*	B = 0	C = 52*	D = .	E = .	F = 5
13. O=C(CN1CCN(C(=O)c2ccc(-c3nc4ccccc4s3)o2)CC1)Nc1ccc(F)cc1
  A = 59*	B = .	C = 26	D = -18	E = -1	F = -10
14. C[C@@H]1CN([C@@H](C)CO)C(=O)c2cc(NS(=O)(=O)c3cccs3)ccc2O[C@@H](C)CCCCO[C@H]1CN(C)CC1CCCCC1
  A = 3	B = -4[16.7 µM]	C = .	D = 5	E = 0	F = .
15. CSCCC(c1nc2ccccc2[nH]1)n1c(-c2ccc(C)cc2)nc2ccccc21 (centres undefined)
  A = .	B = .	C = 18	D = .	E = .	F = .
16. Cc1ccc(C(c2nc3ccccc3[nH]2)n2c(-c3ccccc3)nc3ccccc32)cc1 (centres undefined)
  A = 70*	B = 5	C = -1	D = -24	E = 0	F = .
17. COc1cc2cc(NC(C)=O)cc(NCc3ccccc3)c2cc1OC
  A = -4	B = .	C = 0	D = -2	E = -5	F = .
18. CCCCNc1cc(NC(C)=O)cc2cc(OC)c(OC)cc12
  A = 47*	B = -5	C = .	D = -25	E = 2	F = -4
19. CCc1cccc(NS(=O)(=O)c2ccc3c(c2)oc(=O)n3C)c1
  A = -3	B = 51	C = -7	D = -3	E = 4	F = .
20. CCc1cccc(NS(=O)(=O)c2ccc3c(c2)n(C)c(=O)n3C)c1
  A = 10	B = 117*	C = 0	D = -7	E = 0	F = 2
21. Cn1c(=O)n(C)c2cc(NS(=O)(=O)c3ccc(C(C)(C)C)cc3)ccc21
  A = -31	B = 107*	C = -9	D = .	E = .	F = -9
22. COCC(=O)N1C[C@H]2[C@@H](c3ccccc31)[C@H](CO)N2Cc1ccccc1F
  A = -5	B = -9[16.7 µM]	C = .	D = -17	E = -1	F = .
23. c1ccc(CSc2ncn(-c3ccccc3)n2)cc1
  A = 45*	B = -5	C = .	D = -14	E = -1	F = 75
24. Nc1nc(CSc2ncn(-c3ccccc3)n2)cs1
  A = -36	B = -8	C = 18	D = .	E = .	F = 61
25. O=C(CSc1ncn(-c2ccccc2)n1)c1cccs1
  A = 64*	B = -9	C = ?	D = -15	E = -5	F = 90*
26. COc1ccc2[nH]c(=O)c3c(c2c1)OC(C)(C)C=C3
  A = -3	B = 8	C = -8	D = 1	E = 4	F = .
27. Cc1cc2c([nH]c3ccccc32)c2c1OC(C)(C)C=C2
  A = 92*	B = 21	C = 1	D = -14	E = 2	F = 91*
28. CCOCCCNC(=O)C(c1ccc(Cl)cc1)N1CCC2(CC1)OCCO2 (centres undefined)
  A = -16	B = -5	C = 60*	D = -1	E = -1	F = 4
29. CC(=O)C(/C=N/c1cc(-c2ccc(C)cc2)nn1-c1ccccc1)=C(\C)O
  A = .	B = .	C = 38*	D = .	E = .	F = 42
30. C[C@H](CO)N1C[C@H](C)[C@@H](CN(C)C(=O)NC2CCCCC2)Oc2ccc(NC(=O)Cn3cnnn3)cc2CC1=O
  A = -1	B = -3[16.7 µM]	C = .	D = -3	E = 3	F = .
31. CC(=O)Nc1cccc(-c2cn3ccc(C)cc3n2)c1
  A = .	B = .	C = .	D = .	E = .	F = 25
32. O=C(Nc1ccc(-c2ccccc2)cc1)c1ccco1
  A = -3	B = -1	C = -1	D = -32	E = 5	F = -5
33. Cc1ccn2cc(-c3ccc(NC(=O)c4ccco4)cc3)nc2c1
  A = -27	B = -9	C = 46*	D = -3	E = -4	F = 67
34. O=C(Nc1ccc(NC(=O)c2ccco2)cc1)c1ccco1
  A = 46*	B = .	C = 9	D = -6	E = -1	F = 53
35. Cc1ccc(NC(=O)CNC(=O)c2ccco2)cc1
  A = 42*	B = 1	C = 13	D = -20	E = -4	F = 45
36. O=C(Nc1ccc(C(=O)Oc2ccccc2)c(O)c1)c1ccco1
  A = 57*	B = -5	C = .	D = 2	E = 3	F = 79
37. O=C(Nc1nccs1)c1ccc(NC(=O)c2ccco2)cc1
  A = 50*	B = -8	C = .	D = -24	E = -3	F = 76
38. CC(=O)N(C)c1ccc(NC(=O)c2ccco2)cc1
  A = 28	B = 12	C = 35*	D = -25	E = 4	F = 35
39. Nc1nc(-c2ccc(NC(=O)c3ccco3)cc2)cs1
  A = -67	B = -5	C = 42*	D = -16	E = 1	F = -6
40. O=C(Nc1ccc(Br)cc1)c1ccco1
  A = 71*	B = 7	C = 23	D = -13	E = -6	F = 91*

The final three compounds of the section before are carried over, then new ones follow.
Key to letters: A = esBAF inh; B = miR-122 sensor; C = Wnt act; D = UUG fidelity; E = PglD DTNB; F = MITF TRPM1 HTS
38. CC(=O)N(C)c1ccc(NC(=O)c2ccco2)cc1
  A = 28	B = 12	C = 35*	D = -25	E = 4	F = 35
39. Nc1nc(-c2ccc(NC(=O)c3ccco3)cc2)cs1
  A = -67	B = -5	C = 42*	D = -16	E = 1	F = -6
40. O=C(Nc1ccc(Br)cc1)c1ccco1
  A = 71*	B = 7	C = 23	D = -13	E = -6	F = 91*
41. CN(c1ccccc1)S(=O)(=O)c1ccc(NC(=O)c2ccco2)cc1
  A = 19	B = -3	C = -1	D = .	E = .	F = 9
42. Cc1nc(-c2ccc(NC(=O)c3ccco3)cc2)cs1
  A = -77	B = 2	C = -9	D = -86	E = 0	F = -70
43. CC(NC(=O)c1ccco1)C(=O)Nc1nccs1 (centres undefined)
  A = -9	B = 2	C = -3	D = .	E = -6	F = 1
44. COc1ccc(NC(=O)Nc2ccc3c(c2)C(=O)N([C@@H](C)CO)C[C@H](C)[C@@H](CN(C)C(=O)c2ccccc2)OCCCC[C@H](C)O3)cc1
  A = -4	B = -9[16.7 µM]	C = .	D = 16	E = 3	F = .
45. C[C@H]1CCCCO[C@H](CN(C)C(=O)CCC(F)(F)F)[C@@H](C)CN([C@@H](C)CO)C(=O)c2cc(N(C)C)ccc2O1
  A = -2	B = -4[16.7 µM]	C = .	D = 5	E = 1	F = .
46. O=C(Nc1ccc2nc(-c3ccco3)[nH]c2c1)c1ccco1
  A = 32	B = 2	C = 37*	D = -23	E = 4	F = .
47. CC(C)(C)C(=O)COC(=O)c1cccc(NC(=O)c2ccco2)c1
  A = 18	B = -4	C = 0	D = -16	E = 4	F = 49
48. O=C(COC(=O)c1cccc(NC(=O)c2ccco2)c1)c1ccc(Br)cc1
  A = 21	B = -5	C = 43*	D = -18	E = -4	F = .
49. CC(=O)Nc1ccc2nc(-c3ccco3)[nH]c2c1
  A = .	B = .	C = 3	D = .	E = .	F = 28
50. C[C@@H]1CCCCO[C@@H](CN(C)C(=O)Nc2ccc(F)cc2)[C@H](C)CN([C@H](C)CO)C(=O)c2cc(NC(=O)Cc3ccccc3)ccc2O1
  A = 11	B = -5[16.7 µM]	C = .	D = -9	E = -2	F = .

From PubChem
